# AlphaSeq binding of Ab-14 heavy chain variants to a spike HR2 peptide

Antigen: PDVDLGDISGINAS, a 14-residue peptide of the SARS-CoV-2 spike HR2 region.

Parent scFv Ab-14: VH joined to VL by a (GGGGS)3 linker. Changes lie in the heavy chain CDRs alone.
VH: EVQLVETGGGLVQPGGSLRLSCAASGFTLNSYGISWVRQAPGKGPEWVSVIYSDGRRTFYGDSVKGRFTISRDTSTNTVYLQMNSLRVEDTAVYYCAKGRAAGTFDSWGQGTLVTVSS
VL: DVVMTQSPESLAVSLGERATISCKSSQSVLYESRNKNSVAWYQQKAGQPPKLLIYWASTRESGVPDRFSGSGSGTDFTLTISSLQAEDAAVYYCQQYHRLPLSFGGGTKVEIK

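The parent was found by panning a naive human phage display library on the peptide. AAYL49 was designed without a model: most single CDR substitutions and a random sample of double and triple ones. In AlphaSeq, yeast of one mating type display the scFv and yeast of the other type display the target. Mating (16 h, 30 °C) was followed by selection of diploids and sequencing of their barcodes. A regression on co-assayed BCL2-family reference pairs converts the normalised counts of each replicate to an apparent Kd. Mating was done three times.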

Variants are written as CDR1, CDR2 and CDR3 of the heavy chain (limits as in the source). Parent: GFTLNSYGIS, VIYSDGRRTFYGDSVK, GRAAGTFDS.
Affinities are written as log10 Kd with Kd in nM; a lower number is a better binder.
A pair that was not seen in that replicate is written "ND"; this usually means weak binding, but a binder can also be missed.
Three control strains display no target. For library AAYL49, 15% of the pairings with them gave a signal, with a median of 4.06 and one signal in twenty below 2.83, so weak values seen in few replicates may be background. The control count says in how many pairings with the empty strains this scFv gave a signal, with their mean in brackets.

| CDR-H1 | CDR-H2 | CDR-H3 | log10 Kd, replicates | signal with controls |
|---|---|---|---|---|
| GFTLNSYGIS | VIYSPGRRTFYGDSWK | GRAAGTGDS | 5.82 / ND / 4.75 | 5/9 (3.78) |
| GISLNSYGIS | GIYSDGRRTFYGDSVK | GRAAGTFDS | 4.95 / ND / ND | 2/9 (3.71) |
| GFTLNSYGIS | HIWSDGRRTFYGDSWK | GRAAGTFDS | 5.47 / ND / 4.08 | 1/9 (2.67) |
| GFTLNDYGIS | VIYSDGRRTFYGDSVW | GRALGTFDS | 4.65 / ND / ND | 0/9 |
| GFTLNSCGIS | VIYSDGRRTFYGKSVK | GRAAGTFDI | ND / ND / ND | 0/9 |
| GFTLMSYGIS | VIYSDGRRTFYGDSVK | SRAAGTFDS | ND / ND / ND | 2/9 (3.93) |
| GFTLNQYGIS | VIYSDGRRTFYGDSRK | GRQAGTFDS | ND / ND / ND | 0/9 |
| GFTLNSYGIS | VIYSDGRRTFYGDSVK | GRAKATFWS | ND / ND / ND | 0/9 |
| GFMLNSYYIS | VIYSDGRRTFYGDSVK | GRAAGTFMS | ND / ND / ND | 2/9 (3.01) |
| GFTLNSYGDS | VIYSDGRSTFYGDSVD | GRAAGTFDS | ND / ND / ND | 2/9 (4.83) |
| LFTLNSYGIS | VIYSDGRRTFYGDSVP | GRAAGTRDS | ND / ND / ND | 1/9 (5.17) |
| GFTLNSYAIS | VIYSDSRRTNYGDSVK | GRAAGTFDS | ND / ND / ND | 1/9 (3.47) |
| GFTLNSYTIS | VIYSDGRKTFYGDSVK | GRKAGTFDS | 3.38 / ND / 3.41 | 0/9 |
| GFTLNSYGIS | VKYSDGRRFFYGDSVP | GRAAGTFDS | ND / ND / 5.09 | 2/9 (3.57) |
| GFTLNSYGIS | VIYSDGRATNYGDRVK | GRAAGTFDS | ND / ND / ND | 0/9 |
| GFTLNSYGIS | VIYADGRRTDYGDSVK | GRATGTFDS | ND / ND / 3.10 | 6/9 (4.18) |
| GFTLNSDGIS | VIYSDGRRTFYGDSVK | GRAAGFFDS | ND / ND / ND | 0/9 |
| GFTLNSYGIS | VIYSDGIRTFYGDSVK | GRAAGTGGS | 0.86 / 1.02 / 0.91 | 0/9 |
| GFTLNSYGIS | VIYSDGRRTFYGDSIK | GRAAGWFDK | 2.45 / ND / ND | 0/9 |
| LFYLNSYGIS | VIYSDGRRTFYGDSVK | GRAAGVFDS | ND / 4.01 / ND | 1/9 (4.99) |
| GFTLNSYGIS | VIYSDGRRTFEGDSVK | GRAWGTFIS | ND / ND / 3.24 | 1/9 (4.33) |
| GFTLCSYGIS | VIYSDGRRKFYGDSVK | GRAAGTNDS | ND / ND / ND | 0/9 |
| GFTLPSYGIS | VIYSDGRRTFYGDNVK | GGAAGTFDS | 2.55 / 3.23 / 4.30 | 3/9 (3.93) |
| GFTLNSYGIS | VIYSDGRRTFEGDSVK | GRALTTFDS | ND / 4.11 / ND | 1/9 (2.97) |
| GFTLSSYGIS | VIYSDGNRTFYGDGVK | GRAAGTFDS | ND / ND / ND | 0/9 |
| GFTLNSYGIS | VIYSDGRRTFYGDSVK | GRPAGTFDS | 0.62 / 0.58 / 0.40 | 0/9 |
| GFTLNSRGIS | VIYSDGRHTFYGDSVK | GRAAVTFDS | ND / ND / ND | 0/9 |
| GFELNSYGLS | VIYSDGRRTFYGDSVK | GRAAGTFDS | 1.69 / 1.95 / 2.49 | 2/9 (3.95) |
| GFTLNSYGIS | VVYSDGRRTFLGDWVK | GRAAGTFDS | ND / ND / ND | 1/9 (2.80) |
| GFTLNSYGVS | VIYSDARRTFYGDSVE | GRAAGTFDS | ND / ND / ND | 0/9 |
| GFFLVSYGIS | VIYSDGRRTFYGDSVK | TRAAGTFDS | ND / ND / 3.69 | 2/9 (3.54) |
| GFTLNSNGIS | VIPSDGRRTFYGDSVK | GRAAGAFDS | ND / ND / ND | 0/9 |
| GFTLNSYGIS | SIYSDGRRTFCGISVK | GRAAGTFDS | ND / ND / ND | 1/9 (3.67) |
| GFTQFSYGIS | YIYSDGRRTFYGDSVK | GRAAGTFDS | 2.33 / ND / ND | 1/9 (4.14) |
| GFTLNSYFIS | VNYSDGRRTFYLDSVK | GRAAGTFDS | ND / ND / ND | 1/9 (3.07) |
| SFTLNSYGIS | VIYFDGRRTFYDDSVK | GRAAGTFDS | 2.08 / 2.33 / 2.81 | 0/9 |
| GFTLNSYGIS | VIYSDGMNTFYGDSVK | GRAAGTQDS | ND / ND / ND | 0/9 |
| GFTLNSYCIS | VIYSDGRRTFYGDSVD | GRAAGTFDS | 4.20 / 4.53 / ND | 2/9 (4.89) |
| GFTLNSYGIS | VIYSDGRRTGYGVSVK | GRAAGTFFS | ND / ND / ND | 0/9 |
| GFTLNSYGIS | VIYVDGRRTFYGDSVE | GCAAGTFDS | ND / ND / ND | 0/9 |

Excerpt, the final 2 entries:

| CDR-H1 | CDR-H2 | CDR-H3 | log10 Kd, replicates | signal with controls |
|---|---|---|---|---|
| GFTLNSYGIS | VIYSDGRRTGYGVSVK | GRAAGTFFS | ND / ND / ND | 0/9 |
| GFTLNSYGIS | VIYVDGRRTFYGDSVE | GCAAGTFDS | ND / ND / ND | 0/9 |

Data: MIT Lincoln Laboratory AlphaSeq set, Engelhart et al. 2022, doi:10.1038/s41597-022-01779-4, as distributed in FLAb.